# High-throughput results (PubChem)
# PTHR1 agonist: agonists of human PTHR1 parathyroid hormone receptor; Q03431; HEK293 GP2 PTHR1 cells, GloSensor cAMP luminescence, 1 h; Potency, µM (series often up to 115 µM), inactives show top-dose activation, actives largely listed as activators; hit rate 0.075% among 410,000; AID 743266; note: potency is the fitted concentration of half-maximal effect; nearly all actives have a fitted effect of over 55% in size
#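 HEK-293-derived GP2 cells expressing PTHR1 and a GloSensor cAMP reporter, 3,000/well, plated overnight, given luciferin plus IBMX (each 0.5 mM as added) for 1 h at 37 °C, then compound for 1 h at 37 °C. Luminescence was read after 15 min at room temperature.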
# Eya2 inh: blocks the phosphatase activity of human Eya2; O00167; recombinant Eya2, OMFP fluorescence dephosphorylation (OMFP is methylfluorescein phosphate); Potency, µM (doses to about 76.9 µM), for the others: at the highest dose activity, negative = inhibition, actives largely listed as inhibitors; hit rate 0.006% among 330,000; AID 488837; note: potency is the fitted concentration of half-maximal effect; % is set by controls: 0 for no effect and ±100 for the full control effect
#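 Eya2 (0.2 uM) preincubated 10 min at ambient with compound, then OMFP substrate added at 50 uM; 10 min reaction in 50 mM HEPES pH 7.5, 50 mM NaCl, 5 uM MgCl2, 0.05% BSA, 1 mM DTT. Fluorescence read at Ex 485/Em 525 nm.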
# GLS inh: glutaminase GLS (human) inhibition. GLS enzymatic activity, qHTS titration. Potency, µM (titrated, usually from 45.5 µM), inactives show at the highest dose activity change, negative = inhibition, hits mostly inhibitors. hit rate 0.21% among 410,000. AID 624170; note: potency is the fitted concentration of half-maximal effect; % is set by controls: 0 for no effect and ±100 for the full control effect
#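 Assay buffer: 45 mM KH2PO4 pH 8.2, 0.02% Tween-20. hKGA acts on L-glutamine (1 mM solution added); product glutamate is reported by an oxidase/peroxidase Amplex Red coupling, with fluorescence taken at baseline and 30 min.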
# TSG101-PTAP inh: blocks PTAP/TSG101 interaction to inhibit HIV-1 budding. 340,000 tested, under 10 active. Q99816. Potency, µM (doses to about 115 µM), for inactives: top-dose activity change, negative = inhibition, actives largely listed as inhibitors. Fluorescence polarization, FITC-PTAP peptide / Tsg101 binding; active = well fitted inhibition curve with a large enough effect in the main read-out, with a control signal flat, not every such curve was filed as active; inconclusive = small, poorly fitted or top-dose-only effect, or effect the other way, or a change in a side signal; inactive = no such curve, though single readings can be large or run the other way; note: potency is the fitted concentration of half-maximal effect; % of control where 0% means no effect
#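 Tsg101 binding domain (10 uM final) was mixed with compound and a FITC-labeled PTAP peptide (50 nM final) in HEPES pH 7.5 buffer with NaCl, Tween 20, EDTA and TCEP; fluorescence polarization was read after 20 min at r.t.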
# USP2a block: USP2a (human) protease inhibition. O75604. USP2 core, Ub-CHOP2 coupled fluorogenic reporter, 485/531. Potency, µM (top dose mostly 38.3 µM), without a hit: at the top dose activity change, negative = inhibition, usual class: inhibitors. hit rate 0.01% among 330,000. AID 463254;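 note: potency is the fitted concentration of half-maximal effect; plate controls were DMSO wells for no effect and full inhibition by NEM control for full effect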
#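 Cell-free coupled assay: 10nM USP2 core preincubated 30min RT with compound in Tris-HCl pH 8.0/CaCl2/CHAPS buffer, then 25nM Ub-CHOP2 and 25nM reporter substrate; fluorescence (Ex 485/Em 531) read after 60min RT, normalized to NEM inhibition, concentration-response curves fitted.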
# miR-21 FLuc: miR-21 reporter, rising signal; HeLa miR-21 FLuc reporter, luciferase, 48 h; Potency, µM (titrated, usually from 38.3 µM), without a hit: top-dose reporter change, positive = more light; AID 2288; 340,000 tested, under 10 active; active = well fitted rising curve with a large enough effect; inconclusive = small, poorly fitted or top-dose-only effect; inactive = no such curve, though single readings can be large or run the other way;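 further: % of control where 0% means no effect; miR-21 action dims this reporter so a rising signal means less miR-21 action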
#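 Luminescence from a firefly luciferase reporter carrying a miR-21 binding site downstream, stably expressed under a CMV promoter in HeLa cells that make miR-21 endogenously, reports miRNA modulation after 48 h compound exposure up to approximately 40uM final.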
# * hit, by the source's call; i = inactive; ? = inconclusive; / = not tested or not shown; [ ] = dose if it differs, or a comment. Shown are actives, neighbours in structure and some others; about 0.24% of the full set was active somewhere. Unless noted, calls come from the whole dose curve; as a rule, active = well fitted curve in the direction sought with a large enough effect; inconclusive = small, poorly fitted or top-dose-only effect, or another doubt; inactive = no such curve, though single readings can be large; an effect the other way counts as inactive or inconclusive.
1. CC(=O)OCC(=O)[C@@]1(O)[C@H](C)C[C@H]2C3C[C@H](F)C4=CC(=O)C=CC4(C)C3[C@@H](O)CC21C (some centres not stated)
2. CCOC(=O)c1c(/N=C/c2cccc(C)c2O)sc2c1CCN(C)C2
3. CCOC(=O)c1c(/N=C/c2ccc(C)cc2O)sc2c1CCN(C)C2
4. CC(=O)C[C@H]1[C@H](O[C@H]2[C@H](OC(C)C(=O)N[C@@H](C)C(=O)N[C@H](CCC(=O)N[C@@H](CCCCN)C(=O)N[C@H](C)C(=O)O)C(N)=O)[C@@H](NC(=O)O)C(O)O[C@@H]2CO)O[C@H](CO)[C@@H](O)[C@@H]1O (some centres not stated)
5. CCCCC(=O)c1ccc(O)cc1
6. O=C(CCO)c1ccc(O)cc1

assay / entry | 1 | 2 | 3 | 4 | 5 | 6
PTHR1 agonist | / | i | -10.1% | / | -5.0%[57.5 µM] | -19.6%
Eya2 inh | / | 4.7% | ? | / | -5.2% | 5.9%
GLS inh | -0.8% | -0.6% | 10µM* | -0.3% | -8.6% | 7.94µM*
TSG101-PTAP inh | / | -5.8% | 0.3% | / | -13.7% | -18.1%
USP2a block | / | 4.5% | 0.1% | / | 0.2% | 1.1%
miR-21 FLuc | / | -9.1% | -4.5% | / | -31.3% | 3.4%

7. c1cnc2cc3c(cc2n1)[C@@H]1CNC[C@@H]3C1
8. O=C(C1CC1)N1CCN(c2ccc(O)cc2)CC1
9. CCC(C)NC(=O)CSC1=Nc2ccccc2C2=NC(CC(=O)NCc3ccc(F)cc3)C(=O)N12 (configuration not stated)
10. CCN(CC)C(=O)CSC1=Nc2ccccc2C2=NC(c3ccccc3)C(=O)N12 (configuration not stated)
11. Cc1ccc(CNC(=O)c2cc(-c3ccc(C)cc3)nc3n[nH]c(-c4cccc([N+](=O)[O-])c4)c23)cc1
12. CCOC(=O)c1ccc(OCC2c3cc(OC)c(OC)cc3CCN2C(=O)Cc2ccc(OC)c(OC)c2)cc1 (configuration not stated)

assay / entry | 7 | 8 | 9 | 10 | 11 | 12
PTHR1 agonist | / | i | 11.7%[57.5 µM] | 2.9% | i | i
Eya2 inh | / | -12.4% | 3.2% | 5.3% | / | /
GLS inh | -0.6% | 10µM* | 10µM* | 12.6µM* | -2.1% | 5.4%
TSG101-PTAP inh | / | 1.2% | -11.7% | -5.5% | / | /
USP2a block | / | -5.5% | -0.3% | 2.2% | / | /
miR-21 FLuc | / | -10.0% | -1.1% | -5.5% | -5.7% | -2.8%

# Two records picked at random from those above, as already listed:
7. c1cnc2cc3c(cc2n1)[C@@H]1CNC[C@@H]3C1
9. CCC(C)NC(=O)CSC1=Nc2ccccc2C2=NC(CC(=O)NCc3ccc(F)cc3)C(=O)N12 (configuration not stated)

assay / entry | 7 | 9
PTHR1 agonist | / | 11.7%[57.5 µM]
Eya2 inh | / | 3.2%
GLS inh | -0.6% | 10µM*
TSG101-PTAP inh | / | -11.7%
USP2a block | / | -0.3%
miR-21 FLuc | / | -1.1%

# Carrying on:
13. Cn1c(=O)c(C(=O)c2ccccc2)nc2ccccc21
14. CC(CS(=O)(=O)c1ccc2c(c1)NC(=O)CS2)C(=O)NCc1ccccc1Cl (configuration not stated)
15. O=C1CSc2ccc(S(=O)(=O)NCc3ccccc3Cl)cc2N1
16. Cc1cc(=O)n2c(nc3ccccc32)[nH]1
17. COC(=O)C1=C(C)Nc2[nH]c(=S)[nH]c(=O)c2C1c1ccc(OC)cc1 (configuration not stated)
18. COc1ccc(C(c2c(N)[nH]c(=S)[nH]c2=O)c2c(N)[nH]c(=S)[nH]c2=O)cc1

assay / entry | 13 | 14 | 15 | 16 | 17 | 18
PTHR1 agonist | i | -38.1% | i | 31.6µM* | -3.7% | i
Eya2 inh | 19.8%[15.4 µM] | 1.7% | -8.2% | -6.5% | 10.8% | -1.9%
GLS inh | 11.2µM* | 11.2µM* | -1.4% | 0.7% | -13.2% | 11.2µM*
TSG101-PTAP inh | -0.1% | -1.5% | -4.1% | -0.3% | -10.4% | -6.8%
USP2a block | 3.5% | 4.6% | 2.5% | -1.9% | 6.3% | 0.6%
miR-21 FLuc | -0.1% | 1.3% | -5.5% | -20.4% | -1.7% | 0.4%

19. COC(=O)c1scc(-c2ccc(C)cc2)c1S(=O)(=O)N1CCN(c2cccc(OC)c2)CC1
20. Cn1cc(C(c2ccccc2OCC(=O)O)c2cn(C)c3ccccc23)c2ccccc21
21. CCn1c(=O)cc(OCC(=O)O)c2ccccc21
22. COCCN=c1scc(-c2ccco2)n1/N=C/c1ccc(O)c(O)c1O
23. C=CCN=c1scc(-c2ccco2)n1/N=C/c1ccc(O)c(O)c1O

assay / entry | 19 | 20 | 21 | 22 | 23
PTHR1 agonist | -27.5% | -81.9% | i | -6.9% | -18.1%
Eya2 inh | / | 14.4% | -2.1% | -0.7% | 1.7%
GLS inh | -11.5% | 14.1µM* | 2.9% | 0.0% | 10µM*
TSG101-PTAP inh | / | -3.6% | -3.1% | 1.2% | -1.4%
USP2a block | / | -0.6% | 0.7% | -8.9% | 0.0%
miR-21 FLuc | 11.9% | 1.2% | -1.6% | 0.3% | -3.6%
